Earlier results in US20210206820A1 (Purdue Research Foundation, priority 2018, published 2021).

Amino acid sequences for entries named in this document (tags omitted). Residues count along the entry.
UniProt P32241, 31-457: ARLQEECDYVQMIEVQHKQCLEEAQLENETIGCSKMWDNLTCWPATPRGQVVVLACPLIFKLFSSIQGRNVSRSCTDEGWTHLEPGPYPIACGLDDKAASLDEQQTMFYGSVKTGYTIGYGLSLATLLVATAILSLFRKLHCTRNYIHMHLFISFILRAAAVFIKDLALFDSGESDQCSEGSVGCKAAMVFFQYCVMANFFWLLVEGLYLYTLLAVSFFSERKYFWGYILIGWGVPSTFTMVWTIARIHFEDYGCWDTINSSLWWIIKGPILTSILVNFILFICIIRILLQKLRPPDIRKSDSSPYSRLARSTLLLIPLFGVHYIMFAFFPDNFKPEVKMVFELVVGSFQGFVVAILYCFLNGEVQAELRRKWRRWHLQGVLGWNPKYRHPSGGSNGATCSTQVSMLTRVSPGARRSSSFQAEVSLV

Target: VPAC-1 (Homo sapiens, UniProt P32241)
Settings: VIP compared with PACAP; cited from earlier work

Vasoactive Intestinal Peptide [VIP]
Affinity for VPAC-1: equal affinity
